Results: patent US20080248131A1 (Metaproteomics, LLC, priority 2005, published 2008)

What was measured:
db/db mice = experiment: db/db mouse diabetes model, serum glucose and insulin; type: in vivo; details: db/db diabetic mice; 1.0 mg/kg-day, gavage once daily for three days
KK-Ay/Ta mice = experiment: KK-Ay mouse diabetes model, serum glucose and insulin; type: in vivo; details: KK-Ay diabetic mice; 1.0 mg/kg-day, gavage once daily for three days

## CN(CCOc1ccc(CC2SC(=O)NC2=O)cc1)c1ccccn1 (centres unmarked) [rosiglitazone]
db/db mice
  Insulin (serum): 84.7# % Pretreatment
KK-Ay/Ta mice
  Insulin (serum): 88.7 % Pretreatment

Marks after values point to notes of the source that are not given here.
